{"source": "paper PMC11684019", "about": "“Unveiling the Antimycobacterial Potential of Novel 4-Alkoxyquinolines: Insights into Selectivity, Mechanism of Action, and In Vivo Exposure” (Journal of Medicinal Chemistry, 2024)", "experiment": "Aqueous solubility (UHPLC-DAD)", "conditions": "25 °C, 4 h", "data": [{"substance": "4-Iodo-N-(3-((6-methoxy-2-methylquinolin-4-yl)oxy)propyl)aniline [8e]", "values": [{"measurement": "Solubility pH 1.2", "setting": "0.1 M HCl solution", "value": ">2,230 μM"}, {"measurement": "Solubility pH 9.1", "setting": "0.1 M NH4HCO3 solution", "value": 2.49, "unit": "μM"}, {"measurement": "Solubility pH 7.4", "setting": "PBS", "value": 2.9, "unit": "μM"}]}]}
